Source: paper PMC10503797, “Allosteric modulator potentiates β2AR agonist–promoted bronchoprotection in asthma models” (The Journal of Clinical Investigation, 2023)
“And” between values parts separate entries of the source, which are not always exact repeats. Equal entries are not always repeated.

Chains of the proteins cited; added tags and fusions are not shown.
UniProt Q8K4Z4, whole entry: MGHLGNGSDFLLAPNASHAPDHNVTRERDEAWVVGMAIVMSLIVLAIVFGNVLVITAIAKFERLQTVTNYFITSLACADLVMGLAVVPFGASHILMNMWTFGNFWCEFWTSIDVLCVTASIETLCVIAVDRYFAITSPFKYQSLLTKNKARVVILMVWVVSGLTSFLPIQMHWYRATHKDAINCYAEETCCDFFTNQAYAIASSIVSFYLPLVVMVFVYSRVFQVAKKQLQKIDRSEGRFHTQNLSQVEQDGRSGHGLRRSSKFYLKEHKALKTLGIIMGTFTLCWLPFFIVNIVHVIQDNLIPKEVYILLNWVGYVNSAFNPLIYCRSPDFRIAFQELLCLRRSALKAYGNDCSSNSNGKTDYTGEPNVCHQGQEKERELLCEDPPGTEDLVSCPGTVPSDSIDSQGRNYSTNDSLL

Columns and labels:
[1] = test system: lung slices obtained from ovalbumin-sensitized guinea pigs; assay: Ovalbumin-induced airway constriction in lung slices from ovalbumin-sensitized guinea pigs; assay type: cell-based, guinea pig; settings: 0.1 μM fenoterol vs control
[2] = test system: human lung slices; assay: Methacholine-induced airway constriction in human lung slices; assay type: cell-based; settings: read-out: MCh Emax
[3] = test system: guinea pig lung slices; assay: Methacholine-induced airway constriction in guinea pig lung slices; assay type: cell-based; settings: Cavia porcellus, read-out: MCh Emax
[4] = target: guinea pig β2AR (Cavia porcellus, UniProt Q8K4Z4); assay: 125I-CYP radioligand competition binding, guinea pig β2AR; settings: DMSO; Log [Alb] (M) -4.49485

Row | SMILES | Rightward-shift of ovalbumin-induced airway constrictions [1] [fold] | Emax at 1 µM [2] [%] | Emax at 10 µM [2] [%] | Emax at 1 µM [3] [%] | Emax at 10 µM [3] [%] | Emax at 100 µM [3] [%] | 125I-CYP binding, Alb competition curve (Figure 4E) [4]
1 | CC(Cc1ccc(O)cc1)NCC(O)c1cc(O)cc(O)c1 (stereo not shown) [Fenoterol, fenoterol] | 190 | 47.2 ± 5.2 | 21.7 ± 2.8 | 108 ± 1.9 | 107 ± 1 | 102 ± 1.6 | 
2 | CC(C)(C)NCC(O)c1ccc(O)c(CO)c1 (stereo not shown) [Alb, albuterol, reference compound] |  |  |  |  |  |  | 5.934 and 7.068 and 8.638 and 6.455
